Test results taken from patent US20230118642A1, “METHOD FOR TREATING THERAPY-RESISTANT MUC4+ CANCER” (CONSEJO NACIONAL DE INVESTIGACIONES CIENTÍFICAS Y TÉCNICAS, priority 2020, published 2023).

Test system: JIMT-1-shMUC4 tumor
Test: JIMT-1-shMUC4 tumor growth in female nude mice with or without doxycycline
Format: in vivo
Conditions: +doxycycline 2 mg/ml in drinking water (MUC4 knockdown); trastuzumab 5 mg/kg, XPRO1595 10 mg/kg i.p. twice a week
Method: To evaluate the in vivo effect of MUC4 downregulation in trastuzumab-resistant tumors, we injected JIMT-shMUC4 cells in female nude mice. After the tumors were established, animals were randomly assigned to the experimental (+doxycycline 2 mg/ml in drinking water) or control group (-doxycycline). […] JIMT-1-sh-Control tumors with or without doxycycline administration behaved similar (FIG. 10C and FIG. 10D) to JIMT-1 wildtype tumors (FIG. 4A).

trastuzumab: anti-HER2 monoclonal antibody used to treat breast cancer and stomach cancer
inhibition of JIMT-1-shMUC4 tumor growth vs. IgG: 62%
